Molecules are shown by their SMILES. This is a selection; strong and weak results do not stand in their true shares. Some salts and complexes are drawn in separate pieces, as the source files them; their charges need not balance. Activity calls are given as the source filed them.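 The calls were made as follows: active = highest replicate inhibition of at least 40%; inactive = the rest.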

The assay deals with Golgi-associated PDZ and coiled-coil motif-containing protein (Homo sapiens) (UniProt Q9HD26). In words: disruption of CAL PDZ-reporter peptide interaction – biochemical, fluorescence polarization, Cer-tagged CAL PDZ, HTS, primary screen (AID 504414).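 Also: plate controls were DMSO neutral control wells for no effect and unlabeled competitor peptide control wells for full effect.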 Conditions: purified CAL PDZ, TMR-peptide fluorescence polarization, 1 h; at 20 µM; stronger effect = higher value.
For `Cc1cc(C)cc(OP(C)(=O)Nc2ccccn2)c1` (stereo not drawn), the inhibition is inactive: -1.38%.

With `CP(=O)(Nc1cccc(Br)c1)Oc1ccccc1` (stereo not drawn), the inhibition was inactive: -1.75%. Then `Cc1ccc(C)c(NP(C)(=O)Oc2ccccc2)c1` (stereo not drawn), with inactive: -0.241%. The result for `COc1ccccc1OP(C)(=O)Nc1cccc(Br)c1` (stereo not drawn) reads inactive: -0.711%. The result for `Cc1cc(C)cc(OP(C)(=O)Nc2ccc(C)cc2C)c1` (stereo not drawn) reads inactive: -0.866%; that for `CCOC(=O)c1ccc(NP(C)(=O)Oc2cc(C)cc(C)c2)cc1` (stereo not drawn), inactive: -1.77%. On to `CC1=NCCc2c1[nH]c1ccccc21.O=[N+]([O-])c1cc([N+](=O)[O-])c(O)c([N+](=O)[O-])c1`, for which the inhibition is inactive: -0.844%.

Regarding `O=C(O)c1cccc(Nc2c([N+](=O)[O-])cc([N+](=O)[O-])cc2[N+](=O)[O-])c1`, the inhibition was inactive: -1.4%. The result for `CN1CCCCC1COC(=O)C1(O)c2ccccc2CCc2ccccc21` (stereo not drawn) reads inactive: -2.75%; that for `COc1ccccc1OP(C)(=O)Nc1c(C)cccc1C` (stereo not drawn), inactive: -2.06%; that for `CCCOc1ccc(NP(C)(=O)Oc2ccc(Cl)cc2)cc1` (stereo not drawn), inactive: -0.31%. Take `CP(=O)(Nc1ccc(SC(F)(F)F)cc1)Oc1ccccc1` (stereo not drawn): the inhibition is inactive: -2.31%.

With `CCOC(=O)C(CC)C1=NC(C)(C)Cc2ccccc21.O=[N+]([O-])c1cc([N+](=O)[O-])c(O)c([N+](=O)[O-])c1` (stereo not drawn), the inhibition is inactive: -2.2%. Then `CC1=C2N=C(C=C3N=C(C(C)=C4[N-][C@@](C)([C@@H]5N=C1[C@](C)(CCC(=O)NC[C@@H](C)OP(=O)([O-])O[C@H]1[C@@H](O)[C@@H](n6cnc7cc(C)c(C)cc76)O[C@@H]1CO)[C@H]5CC(N)=O)[C@@](C)(CC(N)=O)[C@@H]4CCC(N)=O)[C@@](C)(CC(N)=O)[C@@H]3CCC(N)=O)C(C)(C)[C@@H]2CCC(N)=O.[C-]#N.[Co+3]`, with inactive: 0.59%; and `O=[N+]([O-])c1cc([N+](=O)[O-])c(Nc2nnnn2CCO)c([N+](=O)[O-])c1`, with inactive: -0.332%; and `O=[N+]([O-])c1cc([N+](=O)[O-])c(-c2cnn(-c3ccccc3)c2)c([N+](=O)[O-])c1`, with inactive: -0.308%. The result for `Cc1nc2ccc3ccccc3c2s1.O=[N+]([O-])c1cc([N+](=O)[O-])c(O)c([N+](=O)[O-])c1` reads inactive: -4.65%; that for `O=[N+]([O-])c1cc([N+](=O)[O-])c(-n2nnc3ccccc32)c([N+](=O)[O-])c1`, inactive: -0.518%. Take `CCOP(C)(=S)SCC(=O)NC(C)C(=O)O` (stereo not drawn): the inhibition was inactive: 0.164%.

As for `CCOC(=O)c1ccc(NP(C)(=O)Oc2ccc(OC)cc2)cc1` (stereo not drawn), the inhibition is inactive: -1.05%. The result for `CP(=O)(Nc1ccccn1)Oc1ccc(Cl)cc1` (stereo not drawn) reads inactive: -0.983%; that for `CP(=O)(Oc1ccccc1)OC(c1ccccc1)C(F)(F)F` (stereo not drawn), inactive: -1.22%. The result for `Cc1cccc(C)c1OP(C)(=O)Nc1ccc(SC(F)(F)F)cc1` (stereo not drawn) reads inactive: 0.649%; that for `Cc1cc(C)cc(OP(C)(=O)Nc2ccc(SC(F)(F)F)cc2)c1` (stereo not drawn), inactive: 0.111%; that for `CP(=O)(NC(=O)Nc1ccccc1)Oc1ccccc1` (stereo not drawn), inactive: 0.284%. The result for `CCc1ccc(OP(C)(=O)N2CCN(c3ccc([N+](=O)[O-])cc3)CC2)cc1` (stereo not drawn) reads inactive: -1.05%. On to `CP(=S)(Nn1cnnc1)Oc1ccccc1` (stereo not drawn), for which the inhibition is inactive: -1.62%. With `COc1ccccc1OP(C)(=O)Nc1ccccc1` (stereo not drawn), the inhibition is inactive: -1.76%. Then `CP(=O)(Nc1ccccc1Br)Oc1ccccc1` (stereo not drawn), with inactive: -0.251%; and `CCOC(=O)c1ccc(NP(C)(=O)Oc2ccccc2)cc1` (stereo not drawn), with inactive: 0.133%. Then `Cc1ccc(NP(C)(=O)Oc2ccccc2)c(C)c1` (stereo not drawn), with inactive: -1.92%; and `COc1ccccc1OP(C)(=O)Nc1ccc(C)cc1` (stereo not drawn), with inactive: 1.95%; and `COc1ccc(OP(C)(=O)Nc2cccc(F)c2)cc1` (stereo not drawn), with inactive: -2.13%. Then `COc1ccccc1OP(C)(=O)Nc1cc(Cl)ccc1C` (stereo not drawn), with inactive: -0.303%; and `Cc1cc(C)cc(OP(C)(N)=O)c1` (stereo not drawn), with inactive: -1.25%.

Regarding `O=[N+]([O-])c1cc([N+](=O)[O-])c(Nc2cccnc2)c([N+](=O)[O-])c1`, the inhibition is inactive: 1%. Then `Cc1cccc(C)c1OP(C)(N)=O` (stereo not drawn), with inactive: -1.98%; and `CC(C)(C)c1ccc(OP(C)(=O)Nc2ccc(SC(F)(F)F)cc2)cc1` (stereo not drawn), with inactive: -0.574%.

`O=[N+]([O-])c1ccc2c(c1)C=Nc1ccccc1O2`: the inhibition was inactive: 0.263%. Then `CCN(CC)CCCOC(=O)C(O)(c1ccccc1)c1ccccc1`, with inactive: -0.361%; and `Cc1c(NP(C)(=O)Oc2ccc(C(C)C)cc2)c(=O)n(-c2ccccc2)n1C` (stereo not drawn), with inactive: -2.44%. The result for `O=[N+]([O-])c1cc([N+](=O)[O-])c(Nc2ccccn2)c([N+](=O)[O-])c1` reads inactive: -20.1%. The result for `CCc1ccc(OP(C)(=O)O)cc1` reads inactive: 0.181%; that for `COc1ccccc1OP(C)(=O)Nc1ccc(C)cc1C` (stereo not drawn), inactive: -0.572%. For the molecule `CP(=O)(Nc1ccccn1)Oc1ccccc1` (stereo not drawn), the inhibition is inactive: -0.542%. With `COc1ccccc1OP(C)(=O)Nc1ccc(Br)cc1` (stereo not drawn), the inhibition was inactive: -0.0146%. The result for `CN(C)CCOC(=O)C(O)(c1ccccc1)C1CCCC1` (stereo not drawn) reads inactive: 1.51%; that for `COc1ccc(OP(C)(=O)Nc2ccccn2)cc1` (stereo not drawn), inactive: -2.71%.

As to `CP(=O)(Nc1ccc(Cl)cc1Cl)Oc1ccccc1` (stereo not drawn), the inhibition was inactive: -0.748%. For the molecule `CCCCCCCCCCCCCCCC1C[N+](C)(C)CCOP(C)(=O)O1` (stereo not drawn), the inhibition is inactive: -1.83%. The result for `CP(=O)(OCCOc1ccccc1)OCCOc1ccccc1` reads inactive: -6.34%; that for `Cc1cc(C)cc(OP(C)(=O)Nc2cccc(C(F)(F)F)c2)c1` (stereo not drawn), inactive: 0.104%.

Turning to `O=C1C(O)=C([N+](=O)[O-])C(=O)C(O)=C1[N+](=O)[O-]`, the inhibition was inactive: -0.295%. Take `COc1ccc(OP(C)(=O)Nc2ccccc2Br)cc1` (stereo not drawn): the inhibition is inactive: -0.32%.

In the case of `CP(=O)(OC12CC3CC(CC(C3)C1)C2)OC12CC3CC(CC(C3)C1)C2`, the inhibition is inactive: -0.891%. `CCOC(=O)c1ccc(NP(C)(=O)Oc2ccc(Cl)cc2)cc1` (stereo not drawn): the inhibition is inactive: -3.22%. The result for `CP(=O)(Nc1ccc(Cl)cc1)Oc1ccc(F)cc1` (stereo not drawn) reads inactive: -2.32%; that for `COc1ccccc1OP(C)(=O)Nc1ccccc1Br` (stereo not drawn), inactive: -0.283%; that for `CC(C)(C)c1ccc(OP(C)(=O)O)cc1`, inactive: 0.0824%.

Turning to `CN(C)C(=O)c1c([N+](=O)[O-])cc([N+](=O)[O-])cc1[N+](=O)[O-]`, the inhibition is inactive: 15.2%.

For `COc1ccc(OP(C)(=O)Nc2ccc(Br)cc2)cc1` (stereo not drawn), the inhibition was inactive: -0.173%. Then `CCN(CC)CC(O)COC(=O)C(O)(c1ccccc1)C1CCCCC1` (stereo not drawn), with inactive: -0.247%.

On to `CCc1ccc(OP(C)(=O)Nc2cccnc2)cc1` (stereo not drawn), for which the inhibition was inactive: -0.103%. The result for `CP(=O)(Oc1ccccc1)N1CCOC1=O` (stereo not drawn) reads inactive: 0.533%. The result for `O=C(OCCCN1CCCC1)C(O)(c1ccccc1)C1CCCCC1` (stereo not drawn) reads inactive: 0.305%; that for `COc1ccccc1OP(C)(=O)Nc1c(C)n(C)n(-c2ccccc2)c1=O` (stereo not drawn), inactive: -0.954%; that for `CP(=O)(Nc1ccc2c(c1)OCCO2)Oc1ccccc1` (stereo not drawn), inactive: 0.56%. For the molecule `Cc1ccccc1NP(C)(=O)Nc1ccccc1C`, the inhibition was inactive: 0.0908%. For `CP(=O)(Nc1ccc(SC(F)(F)F)cc1)Oc1ccc(F)cc1` (stereo not drawn), the inhibition is inactive: -0.99%. On to `CCOP(C)(=S)SCC(=O)NC(C)(CC)C(=O)O` (stereo not drawn), for which the inhibition is inactive: -2.71%. Then `O=[N+]([O-])c1cc([N+](=O)[O-])c(NCC2CCS(=O)(=O)C2)c([N+](=O)[O-])c1` (stereo not drawn), with inactive: -1.9%. The result for `Cc1cc(-c2cccc3ccccc23)c(C)cn1.O=[N+]([O-])c1cc([N+](=O)[O-])c(O)c([N+](=O)[O-])c1` reads inactive: -1.68%. Take `O=[N+]([O-])c1ccc(OP2(=O)COCCO2)cc1` (stereo not drawn): the inhibition was inactive: 0.725%.

In the case of `Cc1c(C(c2ccc3c(c2)OCO3)c2c(C)n(C)n(-c3ccccc3)c2=O)c(=O)n(-c2ccccc2)n1C.O=[N+]([O-])c1cc([N+](=O)[O-])c(O)c([N+](=O)[O-])c1`, the inhibition was inactive: 1.67%.

In the case of `COc1ccc(NP(C)(=O)Oc2ccccc2OC)cc1` (stereo not drawn), the inhibition was inactive: 0.423%. The result for `CN(C)CCOC(=O)C(O)(c1ccccc1)C1CCCCC1` (stereo not drawn) reads inactive: 0.63%; that for `CCN(CC)CCCOC(=O)C(O)(c1ccccc1)C1CCCCC1` (stereo not drawn), inactive: -0.473%. For `Cc1c([N+](=O)[O-])cc([N+](=O)[O-])c(Br)c1[N+](=O)[O-]`, the inhibition is inactive: 0.571%. With `O=[N+]([O-])c1cc([N+](=O)[O-])c(OC2CCCCC2O)c([N+](=O)[O-])c1` (stereo not drawn), the inhibition was inactive: 0.0933%.

With `CCCCCOc1ccc(NP(C)(=O)Oc2ccc(Cl)cc2Cl)cc1` (stereo not drawn), the inhibition is inactive: 1.79%. Then `CP(=O)(Nc1ccccc1)Oc1ccc(F)cc1` (stereo not drawn), with inactive: -2.96%; and `COc1ccc(OP(C)(=O)Nc2ccc(SC(F)(F)F)cc2)cc1` (stereo not drawn), with inactive: -0.0447%.

In the case of `CCOC(=O)c1ccc(NP(C)(=O)Oc2ccc(F)cc2)cc1` (stereo not drawn), the inhibition was inactive: 0.346%. The result for `O=C(OCCN1CCN(CCOCc2ccccc2)CC1)C(O)(c1ccccc1)c1ccccc1` reads inactive: -2.08%; that for `O=C(OC1CN2CCC1CC2)c1ccc([N+](=O)[O-])cc1` (stereo not drawn), inactive: -1.2%. The result for `COc1ccc2c(c1O)-c1c(O)c(OC)cc3c1[C@H](C2)[N+](C)(C)CC3.O=[N+]([O-])c1cc([N+](=O)[O-])c([O-])c([N+](=O)[O-])c1[O-]` reads inactive: -0.909%; that for `CC(C)c1ccc(OP(C)(=O)Nc2ccc(SC(F)(F)F)cc2)cc1` (stereo not drawn), inactive: -0.314%; that for `CP(=O)(Nc1ccccc1F)Oc1ccccc1` (stereo not drawn), inactive: -2%.

(Values after PubChem BioAssay AID504414 (Broad Institute, 2011).)
